Patent publication US9371290B2, “Pyridazinone compounds” (BIOTIE THERAPIES CORPORATION, priority 2011, dated 2016)

By UniProt entry, the sequences of proteins in these tests, tags left out.
UniProt Q16853, whole entry: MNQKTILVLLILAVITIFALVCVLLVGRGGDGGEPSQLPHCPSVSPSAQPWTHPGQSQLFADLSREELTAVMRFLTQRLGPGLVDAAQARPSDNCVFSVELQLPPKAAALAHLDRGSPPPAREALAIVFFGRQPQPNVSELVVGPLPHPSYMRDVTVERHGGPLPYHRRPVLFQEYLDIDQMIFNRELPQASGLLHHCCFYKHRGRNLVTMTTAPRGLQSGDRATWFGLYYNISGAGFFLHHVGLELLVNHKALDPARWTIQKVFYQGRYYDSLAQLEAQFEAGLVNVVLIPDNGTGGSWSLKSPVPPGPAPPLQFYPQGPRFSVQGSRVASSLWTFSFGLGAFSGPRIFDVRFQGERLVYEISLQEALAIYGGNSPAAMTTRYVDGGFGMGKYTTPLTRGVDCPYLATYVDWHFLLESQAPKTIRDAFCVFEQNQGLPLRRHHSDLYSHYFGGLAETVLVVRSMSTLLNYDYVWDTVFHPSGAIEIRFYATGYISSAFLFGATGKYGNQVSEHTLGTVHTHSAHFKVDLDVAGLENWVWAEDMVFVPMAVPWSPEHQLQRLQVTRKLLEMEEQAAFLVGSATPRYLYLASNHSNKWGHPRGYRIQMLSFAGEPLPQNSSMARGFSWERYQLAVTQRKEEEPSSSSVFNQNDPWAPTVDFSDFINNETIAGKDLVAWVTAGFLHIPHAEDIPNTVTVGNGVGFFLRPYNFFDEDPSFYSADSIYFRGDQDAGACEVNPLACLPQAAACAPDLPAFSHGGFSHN

Assays:
Total MAO = assay: Total rat MAO activity (rat liver mitochondrial preparation, tyramine substrate); conditions: at 100 μM
Description: Rat MAO was prepared from rat liver by rinsing the 1 g liver sample several times in 14 ml KCl-EDTA-solution to remove all blood. Then 1 g liver sample was homogenized in 4 ml ice-cold potassium phosphate buffer (0.1 M, pH 7.4) with an Ultra-Turrax homogenizer (setting 11 000 rpm, 4×10 s). After centrifugation at 500 g for 10 min at 4° C. the supernatant was carefully withdrawn and was centrifuged at 12 300 g for 15 min at 4° C. The supernatant was discharged and sedimented mitochondria were resuspended in 4 ml fresh phosphate buffer and centrifuged as previously. The mitochondria were suspended in 4 ml phosphate buffer and homogenized with an Ultra-Turrax homogenizer (setting 11 000 rpm, 2×10 s). Mitochondrial preparate was aliquoted and stored at −70° C. Total MAO activity was measured in a similar way as for VAP-1 SSAO except that SSAO enzyme was replaced by MAO enzyme. To each well was added a predetermined amount of inhibitor if required. […] The plates were incubated for 30 min at 37° C. and the background absorbance measured at 490 nm using a Wallac Victor II multilabel counter. […] The increase in absorbance, reflecting MAO activity, was measured at 490 nm. Inhibition was presented as percent inhibition compared to control after correcting for background absorbance and IC50 values calculated using GraphPad Prism. […]

[1] = biological target: Recombinant human VAP-1 SSAO (Homo sapiens, UniProt Q16853); assay: In vitro inhibition of VAP-1 SSAO activity (coupled colorimetric method, benzylamine substrate); conditions: read-out: VAP-1 SSAO Inhibitory activity IC50, CHO cell lysate, 1 mM benzylamine
Description: VAP-1 SSAO activity was measured using the coupled colorimetric method essentially as described for monoamine oxidase and related enzymes (Holt, A., et al., Anal. Biochem. 244:384-392 (1997)). Recombinant human VAP-1 SSAO expressed in Chinese Hamster Ovary (CHO) cells was used as a source of VAP-1 SSAO for activity measurements. Native CHO cells have negligible SSAO activity. These cells and their culture have previously been described (Smith, D. J., et al., J. Exp. Med. 188:17-27 (1998)). A cell lysate was prepared by suspending approximately 3.6×10^8 cells in 25 ml lysis buffer (150 mM NaCl, 10 mM Tris-Base pH 7.2, 1.5 mM MgCl2, 1% NP40) and incubating at 4° C. overnight on a rotating table. The lysate was clarified by centrifugation at 18 000 g for 5 min at room temperature and the supernatant used directly in the assay. The VAP-1 SSAO assay was performed in 96 well microtitre plates as follows. To each well was added a predetermined amount of inhibitor if required. […] The plates were incubated for 30 min at 37° C. and the background absorbance measured at 490 nm using a Wallac Victor II multilabel counter. […] The increase in absorbance, reflecting VAP-1 SSAO activity, was measured at 490 nm. Inhibition was presented as percent inhibition compared to control after correcting for background absorbance and IC50 values calculated using GraphPad Prism.

IC50 [1]: 170 nM
SMILES: O=c1cc(NC2CCCCC2)c(-c2nc[nH]n2)cn1-c1ccccc1
Total MAO Inhibitory activity (%) (Total MAO): 5%
